Here are results for 1 molecule from US20010029264A1, “Novel methods and compositions for delivery of taxanes” (priority 1998, published 2001).

This series in a line: Oral feasibility PK in dogs (paclitaxel capsules, plasma HPLC). The format is in vivo. The method, then: The formulation was as follows: […]
and was hand filled into single 0 hard gelatin capsules to a dose of approximately 34 mg/capsule.
Capsules were inserted into the esophagus and followed with a brief squirt of water and the animals held until swallowing was observed.

With `CC(=O)O[C@H]1C(=O)[C@@]2(C)[C@H]([C@H](OC(=O)c3ccccc3)[C@]3(O)C[C@H](OC(=O)[C@H](O)[C@@H](NC(=O)c4ccccc4)c4ccccc4)C(C)=C1C3(C)C)[C@]1(OC(C)=O)CO[C@@H]1C[C@@H]2O` [paclitaxel], the “AUC (sum of trapezoids)” value (male beagle FJF-8, oral, 3 capsules Vitamin E TPGS/DMI formulation, 7.66 mg/kg) was found to be 202 nghr/mL; the “AUC (sum of trapezoids)” value (male beagle IOF-8, oral, 3 capsules Vitamin E TPGS/DMI formulation, 6.88 mg/kg) stood at 135 nghr/mL; the “AUC (sum of trapezoids)” value (male beagle OEF-8, oral, 1 capsule Vitamin E TPGS/DMI formulation, 3.27 mg/kg) is reported as 187 nghr/mL; the “AUC (sum of trapezoids)” value (male beagle OLF-8, oral, 3 capsules Vitamin E TPGS/DMI formulation, 11.14 mg/kg) was determined as 189 nghr/mL; the “AUC (sum of trapezoids)” value (male beagle PXF-8, oral, 1 capsule Vitamin E TPGS/DMI formulation, 3.23 mg/kg) was 194 nghr/mL.
